The source of these data is patent US20260022171A1 (23ANDME, published 2026).

Assay [1] concerns the target T1, hu-CD200R1-iso1-Ref ECD (human).
T1 chain: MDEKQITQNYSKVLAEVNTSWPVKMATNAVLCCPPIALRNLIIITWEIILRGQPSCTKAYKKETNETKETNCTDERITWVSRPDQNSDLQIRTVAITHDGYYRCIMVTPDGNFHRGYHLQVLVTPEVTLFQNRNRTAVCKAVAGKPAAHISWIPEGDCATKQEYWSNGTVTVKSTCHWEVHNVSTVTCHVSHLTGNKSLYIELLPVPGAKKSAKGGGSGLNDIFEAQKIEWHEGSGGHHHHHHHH
Kind of assay: SPR Biacore 8K, comparison of KD. Background: SPR reads the build-up and loss of mass on a sensor chip optically.

Assay [2] concerns the target T2, hu-CD200R1-iso1-Alt ECD (human).
T2 chain: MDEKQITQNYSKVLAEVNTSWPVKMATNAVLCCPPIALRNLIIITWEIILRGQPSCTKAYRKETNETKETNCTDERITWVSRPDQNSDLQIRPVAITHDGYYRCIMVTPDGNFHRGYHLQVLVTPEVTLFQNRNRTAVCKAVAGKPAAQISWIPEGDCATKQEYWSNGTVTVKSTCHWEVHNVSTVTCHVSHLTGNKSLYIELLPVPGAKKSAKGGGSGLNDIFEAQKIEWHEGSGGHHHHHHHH
Kind of assay: SPR Biacore 8K, comparison of KD.

In the next assay the target is T3, hu-CD200R1-iso4-Ref ECD (human).
T3 chain: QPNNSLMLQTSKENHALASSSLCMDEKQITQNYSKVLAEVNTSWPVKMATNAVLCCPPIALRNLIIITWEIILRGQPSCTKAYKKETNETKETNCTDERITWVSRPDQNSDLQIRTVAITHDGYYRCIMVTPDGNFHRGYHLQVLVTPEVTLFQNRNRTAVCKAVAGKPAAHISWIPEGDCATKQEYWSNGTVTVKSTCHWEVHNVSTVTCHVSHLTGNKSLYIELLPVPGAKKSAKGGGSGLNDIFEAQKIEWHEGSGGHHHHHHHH
Nature of the assay: SPR Biacore 8K 37C; biotin-CD200R1 captured, antibody analyte.

For assay [3], the target named is T1, hu-CD200R1-iso1-Ref ECD. The description is as above.
In another assay the target is T4, hu-CD200R1-iso4-Alt ECD (human).
T4 construct: also called isoform 4 alt
T4 chain: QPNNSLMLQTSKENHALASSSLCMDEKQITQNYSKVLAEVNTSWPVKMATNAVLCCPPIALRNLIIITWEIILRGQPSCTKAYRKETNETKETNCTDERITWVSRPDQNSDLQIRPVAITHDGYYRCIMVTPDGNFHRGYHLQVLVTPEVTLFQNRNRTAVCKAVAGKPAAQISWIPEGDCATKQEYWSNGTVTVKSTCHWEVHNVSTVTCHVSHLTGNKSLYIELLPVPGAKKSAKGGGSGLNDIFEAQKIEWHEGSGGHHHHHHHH
The assay is described as above.

Assay [4] has as its target T2, hu-CD200R1-iso1-Alt ECD. The assay is described as above.

B1: OX108 (commercial anti-CD200R1 antibody) (antibody, V domains shown)
VH: EVKLQQSGPELVKPGASVKMSCKASGYTFTSYVMHWVKQKPGQGLEWIGYINPYNDDTNYNEKFKGKATLTSDKSSSTAYMELSSLTSEDSAVYYCAREDYYGSRWGYWGQGTTLTVSS
VL: DIVLTQSPASLAVSLGQRATISCRASKSVSTSGYSYMHWYQQKPGQPPKLLIYLASNLESGVPARFSGSGSGTDFTLNIHPVEEEDAATYYCQHSRELLTFGAGTKLELK
As a reminder, the Kd is the free concentration of one partner at which half of the binding sites on the other are occupied at equilibrium, for simple one-to-one binding. One may read the koff as a measure of how fast the partners let go of each other. What is called kon is the rate constant with which the complex forms. On to B1, for which the “fold greater affinity than for isoform 4” value in the assay with hu-CD200R1-iso1-Ref ECD [1] and in the assay with hu-CD200R1-iso1-Alt ECD [2] was 10 fold each time. For the same molecule, the Kd with hu-CD200R1-iso4-Ref ECD turned out to be 16.2 nM; with hu-CD200R1-iso1-Ref ECD [3], 2.23 nM; with hu-CD200R1-iso4-Alt ECD it was 15 nM; with hu-CD200R1-iso1-Alt ECD [4] it was 2.13 nM. Besides, the koff stood at 0.00389 s⁻¹ with hu-CD200R1-iso4-Ref ECD, 0.00765 s⁻¹ with hu-CD200R1-iso1-Ref ECD [3], 0.00386 s⁻¹ with hu-CD200R1-iso4-Alt ECD and 0.00824 s⁻¹ with hu-CD200R1-iso1-Alt ECD [4]. Moreover, the kon with hu-CD200R1-iso4-Ref ECD was determined as 240000 M⁻¹ s⁻¹; in the assay with hu-CD200R1-iso1-Ref ECD [3], 3.43e+06 M⁻¹ s⁻¹; with hu-CD200R1-iso4-Alt ECD, 257000 M⁻¹ s⁻¹; with hu-CD200R1-iso1-Alt ECD [4] it was 3.86e+06 M⁻¹ s⁻¹.
